# Yeast mating assay 2: variants of the scFv Ab-91

Target: peptide PDVDLGDISGINAS, taken from heptad repeat 2 (HR2) of SARS-CoV-2 spike.

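The starting antibody came from a phage panning campaign against this peptide. The library (AAYL51) carries one to three amino acid substitutions per variant, with no insertions or deletions. The assay is AlphaSeq: two haploid yeast populations carry antibody and antigen on their surface. Pairs that bind mate more often; barcode pairs of the diploids are counted by sequencing. A regression on co-assayed BCL2-family reference pairs converts the normalised counts of each replicate to an apparent Kd. Mating was done three times.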

The variants keep the light chain, the linker and the frameworks of Ab-91 (scFv order VL, the linker GGGGSGGGGSGGGGS, VH).
VL: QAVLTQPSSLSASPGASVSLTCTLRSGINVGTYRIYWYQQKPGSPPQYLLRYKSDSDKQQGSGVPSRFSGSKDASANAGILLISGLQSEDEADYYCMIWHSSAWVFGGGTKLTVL
VH: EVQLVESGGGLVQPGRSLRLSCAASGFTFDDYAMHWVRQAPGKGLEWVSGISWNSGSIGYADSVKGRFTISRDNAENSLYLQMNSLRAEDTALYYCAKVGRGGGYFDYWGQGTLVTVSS

Sequences are complete VH domains.
Scale: log10 of Kd in nM, estimated from mating counts; low values are strong binders.
Replicates are averaged; those with no signal do not enter the mean.
Where no diploid with the target was found in that replicate, the entry reads "ND": below detection, most likely a poor binder, though not proof of it.
Order: sorted from the lowest average up, undetected variants last.

| VH | log10 Kd, replicates | mean log10 Kd (nM) |
|---|---|---|
| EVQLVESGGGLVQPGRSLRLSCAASGFGFDDYAMHWVRQAPGKGLEWVSGISNNSGDIGYADSVKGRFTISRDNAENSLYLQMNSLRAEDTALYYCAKVGRGGGYFDYWGQGTLVTVSS | 2.45 / 2.17 / ND | 2.31 |
| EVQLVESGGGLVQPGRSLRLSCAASGFTFDDYAMHWVRQAPGKGLEWVSGISWNSGSIGYAFSVKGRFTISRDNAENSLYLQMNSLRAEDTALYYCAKVKRGGGYFNYWGQGTLVTVSS | 2.69 / 2.85 / ND | 2.77 |
| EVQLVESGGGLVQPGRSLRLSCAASGFTFDDYAMHWVRQAPGKGLEWVSGISWNGSSIGYHDSVKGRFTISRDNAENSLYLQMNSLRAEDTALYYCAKVGRGGGYFDYWGQGTLVTVSS | 2.98 / 3.17 / 3.23 | 3.13 |
| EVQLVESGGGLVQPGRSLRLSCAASGFTFDDYAMHWVRQAPGKGLEWVSGISRNSGSIGYMDSVKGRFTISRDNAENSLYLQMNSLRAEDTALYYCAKVGRGGGYFDYWGQGTLVTVSS | 3.31 / 3.22 / 3.09 | 3.21 |
| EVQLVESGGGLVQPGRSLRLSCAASGFTFVDYAMHWVRQAPGKGLEWVSGESWNSGSIGYADSVKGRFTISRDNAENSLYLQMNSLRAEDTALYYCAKVGRGNGYFDYWGQGTLVTVSS | ND / 3.58 / ND | 3.58 |
| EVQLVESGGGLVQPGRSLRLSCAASGFHFRDYVMHWVRQAPGKGLEWVSGISWNSGSIGYADSVKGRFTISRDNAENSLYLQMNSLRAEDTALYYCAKVGRGGGYFDYWGQGTLVTVSS | 3.68 / ND / ND | 3.68 |
| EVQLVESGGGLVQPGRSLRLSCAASGFTFYDYAMHWVRQAPGKGLEWVSGISWESGSIGYADSVKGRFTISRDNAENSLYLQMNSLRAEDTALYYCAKVWRGGGYFDYWGQGTLVTVSS | 4.23 / ND / ND | 4.23 |
| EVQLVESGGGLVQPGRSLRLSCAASGFTFDDYAMHWVRQAPGKGLEWVSGISWNSGSIGYCISVKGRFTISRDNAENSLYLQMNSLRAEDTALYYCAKVGRGGGYFMYWGQGTLVTVSS | 4.33 / 4.98 / ND | 4.65 |
| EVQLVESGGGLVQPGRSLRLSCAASCFTFDDAAMHWVRQAPGKGLEWVSGISWNSGSIGMADSVKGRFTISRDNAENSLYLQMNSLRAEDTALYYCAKVGRGGGYFDYWGQGTLVTVSS | 3.89 / 5.43 / ND | 4.66 |
| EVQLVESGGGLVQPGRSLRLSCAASGFTFDDYAIHWVRQAPGKGLEWVSGISWNSGSQGYADSVKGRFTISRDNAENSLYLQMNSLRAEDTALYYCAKVGRGGGYFHYWGQGTLVTVSS | 4.72 / ND / ND | 4.72 |
| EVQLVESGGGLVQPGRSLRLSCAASGFTFDDYAMWWVRQAPGKGLEWVSGISWNSGSIGYADCVKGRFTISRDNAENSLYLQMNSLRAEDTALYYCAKVSRGGGYFDYWGQGTLVTVSS | 4.47 / 4.74 / 5.66 | 4.96 |
| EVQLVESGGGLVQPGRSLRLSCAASGFTFDDWAMHWVRQAPGKGLEWVSGISWNSGSIGYADIVKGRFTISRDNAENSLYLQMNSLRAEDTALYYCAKVYRGGGYFDYWGQGTLVTVSS | ND / 5.32 / ND | 5.32 |
| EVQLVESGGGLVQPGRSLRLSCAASGFTFDDYAMHWVRQAPGKGLEWVSGISWNSGSIGTADSVKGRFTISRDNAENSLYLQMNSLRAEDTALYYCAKVGRGGVYFLYWGQGTLVTVSS | ND / ND / ND | ND |
| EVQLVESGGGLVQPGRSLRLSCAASGFTFSDYAMHWVRQAPGKGLEWVSMISWNSGSIGYADSVKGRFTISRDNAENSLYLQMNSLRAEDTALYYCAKVGRGGGYFDYWGQGTLVTVSS | ND / ND / ND | ND |
| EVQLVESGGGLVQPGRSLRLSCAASGFTFDPSAAHWVRQAPGKGLEWVSGISWNSGSIGYADSVKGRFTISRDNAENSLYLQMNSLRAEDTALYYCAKVGRGGGYFDYWGQGTLVTVSS | ND / ND / ND | ND |
| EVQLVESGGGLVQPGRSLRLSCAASGFTFDPYAMHWVRQAPGKGLEWVSGISWNSGSIGYADSVKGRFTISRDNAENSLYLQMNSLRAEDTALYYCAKWGRGGGYFQYWGQGTLVTVSS | ND / ND / ND | ND |
| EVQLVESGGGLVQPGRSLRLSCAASGFTFDDYAMHWVRQAPGKGLEWVSGIDWNKGSIGYADSVKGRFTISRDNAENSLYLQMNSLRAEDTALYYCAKVGRGGCYFDYWGQGTLVTVSS | ND / ND / ND | ND |
| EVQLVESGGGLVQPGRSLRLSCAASGFTFDQYAMHWVRQAPGKGLEWVSGISWNSGSIGYADSVKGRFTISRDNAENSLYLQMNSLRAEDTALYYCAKVGRGGGYFDKWGQGTLVTVSS | ND / ND / ND | ND |
| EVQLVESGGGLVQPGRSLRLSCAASGCTFDDYAMHWVRQAPGKGLEWVSGISWNSGSIGYADPVKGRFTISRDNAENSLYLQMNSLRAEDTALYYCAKVGRGGGYFDNWGQGTLVTVSS | ND / ND / ND | ND |
| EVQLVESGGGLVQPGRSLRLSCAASGFTFDDYAMKWVRQAPGKGLEWVSGISWNSGSIGYADSVDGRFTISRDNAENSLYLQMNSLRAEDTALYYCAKVGRGMGYFDYWGQGTLVTVSS | ND / ND / ND | ND |
| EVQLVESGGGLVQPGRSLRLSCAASYFTFDDYAMHWVRQAPGKGLEWVSGRSWNSGSIGYADSVKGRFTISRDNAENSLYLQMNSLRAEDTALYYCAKVGRGGYYFDYWGQGTLVTVSS | ND / ND / ND | ND |
| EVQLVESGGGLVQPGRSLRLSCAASGFTCDDYQMHWVRQAPGKGLEWVSGISWNSGSIGYKDSVKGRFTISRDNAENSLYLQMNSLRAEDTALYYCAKVGRGGGYFDYWGQGTLVTVSS | ND / ND / ND | ND |
| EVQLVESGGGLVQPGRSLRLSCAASGFTFDDTAMHWVRQAPGKGLEWVSGISWNSRSIGYADSVKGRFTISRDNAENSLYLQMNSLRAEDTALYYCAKVGRGGGYYDYWGQGTLVTVSS | ND / ND / ND | ND |
| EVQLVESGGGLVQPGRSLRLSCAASGFTFDDYAMHWVRQAPGKGLEWVSDISWESGSIGYADCVKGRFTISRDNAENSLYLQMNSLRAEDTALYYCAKVGRGGGYFDYWGQGTLVTVSS | ND / ND / ND | ND |

The first 2 variants above that were never detected:

| VH | log10 Kd, replicates | mean log10 Kd (nM) |
|---|---|---|
| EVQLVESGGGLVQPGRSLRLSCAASGFTFDDYAMHWVRQAPGKGLEWVSGISWNSGSIGTADSVKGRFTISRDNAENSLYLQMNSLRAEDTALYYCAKVGRGGVYFLYWGQGTLVTVSS | ND / ND / ND | ND |
| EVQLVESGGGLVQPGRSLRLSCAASGFTFSDYAMHWVRQAPGKGLEWVSMISWNSGSIGYADSVKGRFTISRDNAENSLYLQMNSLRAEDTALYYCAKVGRGGGYFDYWGQGTLVTVSS | ND / ND / ND | ND |

Empty control strains, which show no peptide, gave a signal in 21% of pairings with library AAYL51; the median was 4.54 and 95% of these signals were weaker than 3.26. No background was subtracted.

The measurements come from Engelhart et al. 2022 (doi:10.1038/s41597-022-01779-4) through the FLAb antibody collection.